# Laboratory results: patent US7572826B2, “Thiophene-carboxamide derivatives and their use as inhibitors of the enzyme IKK-2” (AstraZeneca AB, priority 2003, dated 2009)
# Sequences of proteins named here, by UniProt entry; tags and fusion partners are left off.
# UniProt O14920, whole entry: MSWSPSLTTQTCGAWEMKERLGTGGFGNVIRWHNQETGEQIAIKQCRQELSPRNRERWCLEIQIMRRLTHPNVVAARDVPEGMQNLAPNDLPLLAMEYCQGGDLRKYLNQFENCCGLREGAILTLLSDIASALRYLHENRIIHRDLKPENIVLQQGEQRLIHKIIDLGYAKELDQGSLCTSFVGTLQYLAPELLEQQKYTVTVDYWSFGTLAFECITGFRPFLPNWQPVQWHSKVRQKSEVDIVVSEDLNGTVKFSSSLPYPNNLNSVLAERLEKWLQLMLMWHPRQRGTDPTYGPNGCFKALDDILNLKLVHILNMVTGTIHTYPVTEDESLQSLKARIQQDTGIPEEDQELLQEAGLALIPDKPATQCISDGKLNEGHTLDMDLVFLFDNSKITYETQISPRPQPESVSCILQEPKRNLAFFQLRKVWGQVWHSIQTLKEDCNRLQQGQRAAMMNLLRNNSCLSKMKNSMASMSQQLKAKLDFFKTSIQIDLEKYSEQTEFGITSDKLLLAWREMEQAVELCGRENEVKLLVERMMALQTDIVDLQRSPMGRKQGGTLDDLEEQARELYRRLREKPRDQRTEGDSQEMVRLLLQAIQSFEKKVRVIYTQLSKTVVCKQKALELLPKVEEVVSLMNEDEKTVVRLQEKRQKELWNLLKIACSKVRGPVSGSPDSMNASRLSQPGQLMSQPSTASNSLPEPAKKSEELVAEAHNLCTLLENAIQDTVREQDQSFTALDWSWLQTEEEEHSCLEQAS
# Legend:
# [1] = biological target: IKK-2 (Homo sapiens, UniProt O14920); assay: IKK-2 filter kinase assay; details: read-out: Inhibition of IKK-2 IC50, 1 μM ATP, 1-53 GST-IκB substrate
# [2] = test system: human peripheral blood mononuclear cells (PBMCs); assay: Inhibition of LPS-induced TNFα production by PBMCs; details: read-out: Activity in PBMC Assay IC50, inhibition of LPS-stimulated TNFα production
IC50 [1],Compound,IC50 [2]
320 nM,NC(=O)Nc1sc(-c2ccc(OCCN3CCCCC3)cc2)cc1C(N)=O,1470 nM
260 nM,NC(=O)Nc1sc(-c2ccc(OCCN3CCOCC3)cc2)cc1C(N)=O,1150 nM
200 nM,CN(C)CCOc1ccc(-c2cc(C(N)=O)c(NC(N)=O)s2)cc1,1010 nM
